From patent US20240010655A1, “DIHYDROIMIDAZO PYRIMIDO PYRIMIDINONE COMPOUND” (priority 2019, published 2024)

Amino acid sequences for entries named in this document (tags omitted).
UniProt P30291, whole entry: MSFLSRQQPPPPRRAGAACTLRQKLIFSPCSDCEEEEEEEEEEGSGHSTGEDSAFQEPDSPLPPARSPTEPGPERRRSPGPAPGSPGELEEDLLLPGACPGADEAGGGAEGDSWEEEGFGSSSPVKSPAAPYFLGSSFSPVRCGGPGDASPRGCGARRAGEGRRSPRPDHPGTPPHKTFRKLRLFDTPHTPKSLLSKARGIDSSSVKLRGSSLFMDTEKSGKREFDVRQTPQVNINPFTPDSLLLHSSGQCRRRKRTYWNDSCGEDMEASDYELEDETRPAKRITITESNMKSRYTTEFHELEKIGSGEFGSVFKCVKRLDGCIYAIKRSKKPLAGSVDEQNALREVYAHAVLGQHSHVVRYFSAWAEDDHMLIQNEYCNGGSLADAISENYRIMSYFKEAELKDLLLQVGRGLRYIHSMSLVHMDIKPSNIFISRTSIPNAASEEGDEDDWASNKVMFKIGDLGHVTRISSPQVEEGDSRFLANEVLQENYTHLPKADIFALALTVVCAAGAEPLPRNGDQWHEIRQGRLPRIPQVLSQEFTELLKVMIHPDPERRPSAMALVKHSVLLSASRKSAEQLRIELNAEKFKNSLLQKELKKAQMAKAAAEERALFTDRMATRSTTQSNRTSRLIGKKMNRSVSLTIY

How the values were obtained:
Wee1 (h) = Wee1 (h) (Homo sapiens, UniProt P30291); test: Wee1(h) kinase activity experiment ([γ-33P]-ATP, filtermat, scintillation counting); format: biochemical; conditions: read-out: IC50, inhibitory effect on Wee1 kinase activity; 10 μM ATP, 40 minutes at room temperature
Description: Determination of the Inhibitory Effect of Compounds on Wee1 Kinase Using Wee1(h) Kinase Activity Experiment
Wee1 (h) is incubated with 20 mM Tris/HCl pH 8.5, 0.2 mM EDTA, 500 μM […], 10 mM MgAcetate and 10 μM [γ-^33P]-ATP. Then 50 times the concentration of the testing compound in 100% DMSO was added until the final concentration was 10 μM, then mixed, and diluted to 10 concentrations in successive series according to the ratio of 1:3 and 1:10 respectively (the last concentration was DMSO negative control): 10 μM, 3 μM, 1 μM, 0.3 μM, 0.1 μM, 0.03 μM, 0.01 μM, 0.003 μM, 0.001 μM, 0 μM. The reaction is initiated by the addition of the Mg/ATP mix. After incubation for 40 minutes at room temperature, the reaction is stopped by the addition of phosphoric acid to a concentration of 0.5%. 10 μL of the reaction liquor is then spotted onto a P30 filtermat and washed four times in 0.425% phosphoric acid and once in methanol prior to drying and scintillation counting. Each compound sample is duplicated in duplicate. The negative control was the components except of Wee1 enzyme, and the positive control was the components of adding 30% phosphoric acid to terminate the reaction. Table 1 summarizes the inhibitory effects of compounds on Wee1 kinase activity (IC50).

LoVo cell = test: Inhibition of proliferation of LoVo cell, CCK-8 method; conditions: read-out: IC50, inhibitory effect on the proliferation of LoVo cell; CCK-8, 3 days
Description: Determination of the Inhibitory Effect of Compounds on the Proliferation of LoVo Cell Using CCK-8 Method
(§1) The cells were digested by trypsinase and centrifuged at 800 rpm for 5 minutes, the supernatant was discarded, and the residual was resuspended with fresh medium and counted. The cells were seeded into 96-well cell culture plate with a density of 6000 cells per well and incubated overnight in a 5% C02 incubator at 37° C. The stock solutions of test compounds were serially diluted to 8 concentrations by DMSO at the ratios of 1:3 and 1:10, respectively. The final concentration of compound was: 10 μM, 3.3 μM, 1 μM, 0.33 μM, 0.1 μM, 0.033 μM, 0.01 μM and 0 μM. 5 μL diluent of each concentration was added to 120 μL of medium (25 times diluted) and mixed by shaking. The overnight cell plates were taken and the culture medium was removed, 195 μL of fresh medium was added to each well, and 5 μL of diluted medium containing the corresponding concentration of the test compound was added respectively (the final concentration of DMSO is 1‰), and the culture plate was then placed in a 5% CO2 incubator at 37° C. for 3 days. After removing the original solution, 90 μL of fresh serum-free 1640 medium was added, then 10 μL of CCK-8 reagent was added to each well and continued incubation for 2 hours. The 96-well plates were placed in a multi-function reader to read the absorbance at the wavelength of 450/650 nm. Cell viability (%)=(ODcompound−ODbackground)/(ODDMSO−ODbackground)×100. GraphPad Prism 5.0 was used to analyze the data. The inhibitory activity of compounds on cell proliferation was plotted based on cell viability and the logarithm of compound concentration. The IC50 value was fitted by a sigmoidal dose response curve equation Y=100/(1+10^(Log C−Log IC50)), wherein C was the concentration of compound.
Table 2 summarizes the inhibitory effect data (IC50) of compounds on the proliferation of LoVo cell

NCI-H1299 cell = test: Inhibition of proliferation of NCI-H1299 cell, CCK-8 method; conditions: read-out: IC50, inhibitory effect on the proliferation of NCI-H1299 cell; CCK-8, 3 days
Description: Determination of the Inhibitory Effect of Compounds on the Proliferation of NCI-H1299 Cell Using CCK-8 Method
as §1, with “1000” for “6000”, “CO2” for “C02”
Table 3 summarizes the inhibitory effect data (IC50) of compounds on the proliferation of NCI-H1299 cell.

Row | IC50 (Wee1 (h)) | IC50 (LoVo cell) | IC50 (NCI-H1299 cell) | Compound
1 | 30 nM | 421 nM | 315 nM | C[C@@H]1CN(c2ccc(Nc3ncc4c(n3)N3CCN=C3N(c3c(Cl)cccc3Cl)C4=O)cc2)C[C@H](C)N1C
2 | 23 nM | 166 nM | 122 nM | Cc1cc(Nc2ncc3c(n2)N2CCN=C2N(c2c(Cl)cccc2Cl)C3=O)ccc1N1C[C@@H](C)N(C)[C@@H](C)C1
3 | 48 nM | 557 nM | 398 nM | C[C@@H]1CN(c2ccc(Nc3ncc4c(n3)N3CCN=C3N(c3c(Cl)cccc3Cl)C4=O)cc2F)C[C@H](C)N1C
